Data on two compounds can be found in patent US11512069B2, “TLR7/8 antagonists and uses thereof” (Merck Patent GmbH, priority 2016, dated 2022).

Chains of the proteins cited; added tags and fusions are not shown. Residues count along the entry.
UniProt Q9NYK1, 27-1049 limits assumed: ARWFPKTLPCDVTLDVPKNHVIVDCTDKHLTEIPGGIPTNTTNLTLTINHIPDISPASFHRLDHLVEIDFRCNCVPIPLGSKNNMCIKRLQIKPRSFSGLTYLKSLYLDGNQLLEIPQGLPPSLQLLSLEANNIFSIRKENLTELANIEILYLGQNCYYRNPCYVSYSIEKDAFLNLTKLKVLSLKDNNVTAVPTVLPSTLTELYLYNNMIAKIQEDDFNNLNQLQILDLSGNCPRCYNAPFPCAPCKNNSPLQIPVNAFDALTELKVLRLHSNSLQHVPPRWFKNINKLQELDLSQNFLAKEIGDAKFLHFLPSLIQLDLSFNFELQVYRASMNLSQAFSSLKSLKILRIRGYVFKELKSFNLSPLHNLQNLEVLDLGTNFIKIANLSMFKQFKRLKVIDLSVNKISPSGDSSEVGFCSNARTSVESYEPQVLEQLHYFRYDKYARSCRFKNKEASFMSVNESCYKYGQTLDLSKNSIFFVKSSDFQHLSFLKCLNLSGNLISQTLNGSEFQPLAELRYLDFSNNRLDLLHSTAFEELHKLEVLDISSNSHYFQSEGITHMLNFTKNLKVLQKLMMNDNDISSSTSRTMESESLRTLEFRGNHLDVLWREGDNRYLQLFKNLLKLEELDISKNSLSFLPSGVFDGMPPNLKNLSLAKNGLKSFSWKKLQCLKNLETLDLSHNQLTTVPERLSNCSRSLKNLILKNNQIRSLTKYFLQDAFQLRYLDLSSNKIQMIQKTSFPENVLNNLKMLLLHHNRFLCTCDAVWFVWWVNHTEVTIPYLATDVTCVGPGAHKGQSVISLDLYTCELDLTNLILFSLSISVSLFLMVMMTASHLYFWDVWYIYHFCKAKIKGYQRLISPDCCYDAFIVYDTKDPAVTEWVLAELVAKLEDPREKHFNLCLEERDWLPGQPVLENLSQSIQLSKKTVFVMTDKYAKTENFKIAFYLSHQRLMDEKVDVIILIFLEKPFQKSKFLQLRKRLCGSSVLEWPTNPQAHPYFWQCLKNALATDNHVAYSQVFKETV

In the experiment the target is TLR7 (Homo sapiens, UniProt Q9NYK1). The experiment in a line: HEK Cell Assay (TLR7/NFKb HEK reporter cells, Steady-Glo). Particulars: read-out: Potency, compound 30 min, then R*48 agonist 5 hours, Steady-Glo readout. As for the experimental part: Example 32: HEK Cell Assay
Into 384 CulturePlates (Corning 3707) was placed 5000 c/w of TLR7/NFKb HEK cells in 30 uL DMEM without Phenil red (gibco #31053) and 10% i.a. FCS and 2 mM L-ZGLutamin. The cells were incubated for 24 h at 37 degrees Celsius, 10% carbon dioxide and 90% relative humidity, 3 uL of controls, standards, and compounds were dispensed to wells, incubated for 30 min then 3 uL of R*48 agonist in 20 mM Hepes was added. After incubation for 5 hours, it was allowed to stand at room temperature for 15 min, 10 uL of Steady-Glo substrate reagent was added and shake assay plate for 5 min at 1500 rpm. The assay plate was allowed to sit for 30 min at room temperature and then read plate on EnVision.

Regarding `C[C@@H]1C[C@@H](c2ccc(C#N)c3ncccc23)CN(C(=O)C[C@@H]2[C@H]3CN(C)C[C@@H]23)C1` (relative stereo), the IC50 was < 1 µM. Take `C[C@@H]1C[C@H](c2ccc(C#N)c3ncccc23)CN(C(=O)C[C@@H]2[C@H]3CN(C)C[C@@H]23)C1` (relative stereo): the IC50 is < 1 µM.
